Test results from paper PMC10958515 (ACS Chemical Neuroscience, 2024).

Chains of the proteins cited; added tags and fusions are not shown.
UniProt Q9UQD0, whole entry: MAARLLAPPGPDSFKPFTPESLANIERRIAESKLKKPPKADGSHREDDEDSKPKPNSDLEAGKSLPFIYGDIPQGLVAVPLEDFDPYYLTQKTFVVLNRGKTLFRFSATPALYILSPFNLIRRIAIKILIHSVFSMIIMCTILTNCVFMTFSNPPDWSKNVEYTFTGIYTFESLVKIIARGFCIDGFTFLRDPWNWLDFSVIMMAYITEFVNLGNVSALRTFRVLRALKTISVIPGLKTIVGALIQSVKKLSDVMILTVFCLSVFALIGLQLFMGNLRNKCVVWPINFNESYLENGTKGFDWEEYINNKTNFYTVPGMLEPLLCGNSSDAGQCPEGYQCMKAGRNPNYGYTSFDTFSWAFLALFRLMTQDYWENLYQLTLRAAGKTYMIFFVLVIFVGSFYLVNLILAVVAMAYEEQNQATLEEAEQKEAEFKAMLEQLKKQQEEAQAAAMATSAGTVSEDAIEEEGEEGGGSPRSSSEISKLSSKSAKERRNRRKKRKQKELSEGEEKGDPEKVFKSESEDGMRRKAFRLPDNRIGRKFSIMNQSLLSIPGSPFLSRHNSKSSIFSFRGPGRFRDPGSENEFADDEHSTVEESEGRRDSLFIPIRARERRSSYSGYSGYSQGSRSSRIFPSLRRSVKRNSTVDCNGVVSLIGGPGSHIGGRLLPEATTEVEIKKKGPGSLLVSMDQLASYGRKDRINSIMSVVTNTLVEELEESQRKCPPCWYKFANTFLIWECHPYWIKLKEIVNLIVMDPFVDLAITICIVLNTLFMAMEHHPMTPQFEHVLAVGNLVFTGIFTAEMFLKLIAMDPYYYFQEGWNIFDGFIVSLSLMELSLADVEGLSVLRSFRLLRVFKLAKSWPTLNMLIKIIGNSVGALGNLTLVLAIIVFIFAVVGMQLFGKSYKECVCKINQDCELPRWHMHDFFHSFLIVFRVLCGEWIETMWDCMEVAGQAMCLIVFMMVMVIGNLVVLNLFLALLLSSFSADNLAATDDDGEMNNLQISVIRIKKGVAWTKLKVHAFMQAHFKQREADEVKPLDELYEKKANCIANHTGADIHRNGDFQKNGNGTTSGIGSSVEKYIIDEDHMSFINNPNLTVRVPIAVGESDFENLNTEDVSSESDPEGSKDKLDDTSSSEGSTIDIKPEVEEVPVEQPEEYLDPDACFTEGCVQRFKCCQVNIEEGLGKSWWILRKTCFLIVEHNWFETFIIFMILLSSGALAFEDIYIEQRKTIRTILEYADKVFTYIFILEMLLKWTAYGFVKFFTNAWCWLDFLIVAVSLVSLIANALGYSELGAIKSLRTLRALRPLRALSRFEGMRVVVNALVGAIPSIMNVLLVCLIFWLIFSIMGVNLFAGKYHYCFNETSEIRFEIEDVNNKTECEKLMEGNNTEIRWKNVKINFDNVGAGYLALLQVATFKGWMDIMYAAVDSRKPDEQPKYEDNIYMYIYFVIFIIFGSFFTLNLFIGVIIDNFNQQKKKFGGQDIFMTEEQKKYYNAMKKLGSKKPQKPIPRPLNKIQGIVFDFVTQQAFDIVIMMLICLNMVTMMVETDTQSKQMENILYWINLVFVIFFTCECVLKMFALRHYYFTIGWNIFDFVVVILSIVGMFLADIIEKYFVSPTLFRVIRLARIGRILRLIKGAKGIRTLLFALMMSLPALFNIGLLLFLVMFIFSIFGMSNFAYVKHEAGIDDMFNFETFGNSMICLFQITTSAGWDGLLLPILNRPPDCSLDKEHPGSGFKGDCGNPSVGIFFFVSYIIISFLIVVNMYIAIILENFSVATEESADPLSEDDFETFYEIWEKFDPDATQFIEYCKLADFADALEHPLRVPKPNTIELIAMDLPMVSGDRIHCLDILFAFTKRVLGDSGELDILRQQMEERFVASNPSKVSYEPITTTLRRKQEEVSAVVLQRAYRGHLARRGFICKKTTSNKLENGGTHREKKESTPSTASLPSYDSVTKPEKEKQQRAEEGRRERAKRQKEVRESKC

Target: NaV1.6 (Homo sapiens, UniProt Q9UQD0)
Assay: Kinetics of compound equilibration at V0.5 holding potential
Format: cell-based
How it was run: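 Qube automated patch clamp on cells expressing human NaV1.6, 27 °C, CsF-based internal and 140 mM NaCl external solution. Cells are held at their empirically derived V0.5 for 100 s while inhibition is tracked. Observed rates come from single-exponential fits. Kobs is plotted against concentration and fitted with a straight line (Kobs = kon·[CPD] + koff) to give kon.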

kon: 32800 M⁻¹ s⁻¹
Compound: NC(=O)N1c2ccccc2C=Cc2ccccc21 [carbamazepine]
